In patent US11168079B2, “Alkene compounds as farnesoid x receptor modulators” (BRISTOL-MYERS SQUIBB COMPANY, priority 2017, dated 2021) one finds EC50 data, which are given here for 6 molecules.

The chains behind the UniProt entries cited, without tags or fusion partners. Residues count along the entry.
UniProt Q96RI1, 262-486 limits assumed: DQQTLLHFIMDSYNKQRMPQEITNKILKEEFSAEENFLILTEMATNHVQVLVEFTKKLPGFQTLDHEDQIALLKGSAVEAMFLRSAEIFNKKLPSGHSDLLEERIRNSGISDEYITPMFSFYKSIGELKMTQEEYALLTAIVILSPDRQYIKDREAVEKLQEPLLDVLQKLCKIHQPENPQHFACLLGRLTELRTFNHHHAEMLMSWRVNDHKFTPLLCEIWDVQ

This assay has as its target human FXR (Homo sapiens, UniProt Q96RI1). The assay is described as follows: transient human FXR/Gal4-luciferase reporter assay (HLE GAL-FXR). As to conditions: read-out: FXR EC50; Gal4-hFXR fusion reporter, HEK293 cells; Table 1.

As for `[2H]C([2H])([2H])Oc1cc(C(=O)O)nc2ccc(N3CC(/C=C/c4c(-c5ccccc5C(F)(F)F)noc4C4CC4)C3)cc12`, the EC50 worked out at 29 nM.
Regarding `O=C(O)c1cc(-c2ccc(N3CC(/C=C/c4c(-c5ccccc5C(F)(F)F)noc4C4CC4)C3)cn2)cc(C(F)(F)F)c1`, the concentration for a half-maximal effect (EC50) is 4 nM.
Next, `COc1cc(C(=O)O)nc2ccc(N3CC4C(/C=C/c5c(-c6cccnc6C(F)(F)F)noc5C5CC5)C4C3)nc12` (stereo not drawn): 1890 nM; `O=C(O)c1nn(CC2CC2)c2cc(N3CC4C(/C=C/c5c(-c6c(Cl)cccc6Cl)noc5C5CC5)C4C3)ccc12` (stereo not drawn): 18 nM; `O=C(O)c1cc2ccc(N3CCC(/C=C/c4c(-c5ccccc5C(F)(F)F)noc4C4CC4)CC3)cc2cn1`: 74 nM.
The figure for `O=C(O)c1cc(C(F)(F)F)c2cc(N3CCC(/C=C/c4c(-c5cccnc5C(F)(F)F)noc4C4CC4)CC3)ccc2n1` is 21 nM.
